Results reported in PMC6270569, “Purification, Partial Characterization and Immobilization of a Mannose-Specific Lectin from Seeds of Dioclea lasiophylla Mart” (2013).
Converted amounts (≈) assume the structure as drawn.

Chains of the proteins cited; added tags and fusions are not shown. Residues count along the entry.
UniProt C0HK27, 163-280 limits assumed: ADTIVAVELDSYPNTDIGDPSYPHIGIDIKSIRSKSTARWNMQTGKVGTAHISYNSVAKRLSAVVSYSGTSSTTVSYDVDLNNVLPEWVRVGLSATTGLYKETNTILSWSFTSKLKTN
UniProt C0HK27, 29-147 limits assumed: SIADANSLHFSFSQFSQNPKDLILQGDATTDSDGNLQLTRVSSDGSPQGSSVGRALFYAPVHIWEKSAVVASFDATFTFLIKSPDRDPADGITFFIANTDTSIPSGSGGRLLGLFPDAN

Target: DlyL (Dioclea lasiophylla lectin) (Dioclea lasiophylla, UniProt C0HK27)
Assay: inhibition of hemagglutination (rabbit erythrocytes, serial dilution)
Conditions: 150 mM NaCl; 32 HU lectin; minimum inhibitory concentration; carbohydrate recognition site

Row | SMILES | MIC * [mM]
1 | CO[C@H]1O[C@H](CO)[C@@H](O)[C@H](O)[C@@H]1O | 6.25 (≈ 1210 µg/mL)
2 | OC[C@H]1OC(O)[C@@H](O)[C@@H](O)[C@@H]1O (some centres unmarked) | 25 (≈ 4500 µg/mL)
